Our source for the IC50 values is patent US9505728B2, “Triazolone compounds and uses thereof” (INCEPTION 2, INC., priority 2012, dated 2016).

The chains behind the UniProt entries cited, without tags or fusion partners.
UniProt Q07869, whole entry: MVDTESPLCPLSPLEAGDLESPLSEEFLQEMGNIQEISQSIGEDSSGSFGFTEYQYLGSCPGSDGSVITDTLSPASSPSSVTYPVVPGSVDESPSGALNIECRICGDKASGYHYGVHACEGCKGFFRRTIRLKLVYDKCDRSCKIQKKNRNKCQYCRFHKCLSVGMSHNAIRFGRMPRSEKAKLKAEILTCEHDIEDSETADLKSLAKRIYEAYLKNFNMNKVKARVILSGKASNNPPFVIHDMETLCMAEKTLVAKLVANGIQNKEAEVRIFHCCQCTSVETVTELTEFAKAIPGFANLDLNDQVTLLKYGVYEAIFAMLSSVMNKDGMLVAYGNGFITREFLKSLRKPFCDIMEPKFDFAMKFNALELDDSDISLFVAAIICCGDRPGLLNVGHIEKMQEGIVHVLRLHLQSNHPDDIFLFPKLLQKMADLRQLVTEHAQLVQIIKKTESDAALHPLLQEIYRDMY

This test has as its target Human PPARα (Homo sapiens, UniProt Q07869). Description: Human PPARα Reporter Assay (luciferase). The note with it: read-out: Luciferase IC50; human PPARα reporter cells, overnight incubation, antagonism.

pIC50: −log10 of the molar value.

As to `CCn1c(CCCc2ccc(-c3cc(NS(C)(=O)=O)ccn3)cc2)nn(Cc2ccc(C(C)(C)C)cc2)c1=O` [Example 40, 1-{[4-(tert-Butyl)phenyl]methyl}-4-ethyl-3-[3-(4-{4-[(methylsulfonyl)amino](2-pyridyl)}phenyl)propyl]-1,2,4-triazolin-5-one], the pIC50 was 6.39.

By pIC50 is commonly meant the negative decadic logarithm of the IC50, by convention in mol/L.
